Assay results taken from patent EP4843994A1, “NOVEL PEPTIDE HAVING MUSCLE FORMATION-PROMOTING ACTIVITY, ANTI-OBESITY ACTIVITY AND ANTI-DIABETIC ACTIVITY AND USES THEREOF” (dated 2026).

What was measured:
3T3-L1 cells [1] = experiment: Expression of lipolysis-related proteins in adipocytes (Western blot); details: 3T3-L1 adipocytes (MDI cocktail), peptide 5 µM, 50 µM, 48 hours
Description: The effect of the peptide of SEQ ID NO: 1 prepared in Preparation Example 1 on the expression of lipolysis-related proteins in adipocytes was analyzed. 3T3-L1 cells (preadipocytes, American Type Culture Collection) were cultured in DMEM medium containing 2% BCS (Bovine Calf Serum) (Welgene, Korea). To differentiate 3T3-L1 cells into adipocytes, cells were seeded into 12-well culture plates at a concentration of 1 x 10^5 cells/well, and when the cells became confluent (Day=2), the medium was replaced once more and cultured for an additional 48 hours. After 48 hours (Day=0), the culture medium was replaced with DMEM medium containing 10% FBS, 1% P/S, 1 µg/ml insulin (Sigma, USA), 0.5 mM isobutylmethylxanthine (IBMX) (Sigma, USA), and 1 µM Dexamethasone (Sigma, USA), and cultured. After 2 days (Day=2), the medium was replaced with DMEM medium containing 10% FBS, 1% P/S, and 1 µg/ml insulin, and cultured. After 3 days (Day=5), the medium was replaced with one containing only 10% FBS and 1% P/S, treated with peptides (5 µM, 50 µM), and cultured for 48 hours. After culturing, lysis buffer was added to lyse the cells, and the protein was obtained by centrifuging at 12,000 rpm and 4°C for 30 minutes. The obtained protein was then quantified using a BCA kit. Subsequently, the protein was electrotransferred onto a membrane after performing SDS-PAGE (sodium dodecyl sulfate-polyacrylamide gel electrophoresis). The membrane to which the protein was attached was blocked by treatment with 5% skim milk, and then the primary antibody was incubated overnight at 4°C. The primary antibodies used are as follows: anti-PLIN antibody (Abcam, US); anti-pHSL antibody (Cell signaling Technology, USA); anti-PGC1α antibody (Cell signaling Technology, USA); anti-β-actin antibody (Santa Cruz, USA). […]

3T3-L1 cells [2] = experiment: Expression of adipogenesis-related proteins in adipocytes (Western blot); details: 3T3-L1 adipocytes (MDI cocktail), peptide 5 µM, 50 µM, 48 hours
Description: 3T3-L1 cells (preadipocytes, American Type Culture Collection) were cultured in DMEM medium containing 2% BCS (Bovine Calf Serum) (Welgene, Korea). To differentiate 3T3-L1 cells into adipocytes, cells were seeded into 12-well culture plates at a concentration of 1 x 10^5 cells/well, and when the cells became confluent (Day=2), the medium was replaced once more and cultured for an additional 48 hours. After 48 hours (Day=0), the culture medium was replaced with DMEM medium containing 10% FBS, 1% P/S, 1 µg/ml insulin (Sigma, USA), 0.5 mM isobutylmethylxanthine (IBMX) (Sigma, USA), and 1 µM Dexamethasone (Sigma, USA), and cultured. After 2 days (Day=2), the medium was replaced with DMEM medium containing 10% FBS, 1% P/S, and 1 µg/ml insulin, and cultured. After 3 days (Day=5), the medium was replaced with one containing only 10% FBS and 1% P/S, treated with peptides (5 µM, 50 µM), and cultured for 48 hours. After culturing, lysis buffer was added to lyse the cells, and then the protein was obtained by centrifuging at 12,000 rpm and 4°C for 30 minutes. The obtained protein was then quantified using a BCA kit. Subsequently, the protein was electrotransferred onto a membrane after performing SDS-PAGE (sodium dodecyl sulfate-polyacrylamide gel electrophoresis). The membrane to which the protein was attached was blocked by treatment with 5% skim milk, and then the primary antibody was incubated overnight at 4°C. The primary antibodies used are as follows: anti-SREBP1 antibody (Abcam, US); anti-FAS antibody (Cell signaling Technology, USA); anti-C/EBPα antibody (Cell signaling Technology, USA); anti-pACCα antibody (Cell signaling Technology, USA); anti-β-actin antibody (Santa Cruz, USA). The reactant was washed with PBS-T, then reacted with secondary antibodies (Peroxidase-conjugated AffiniPure Goat Anti-Rabbit IgG (H+L), Jackson immunoResearch, USA; Peroxidase-conjugated AffiniPure Goat Anti-Mouse IgG (H+L), Jackson immunoResearch, USA) at room temperature for 1 hour, washed again with PBS-T, and then visualized by treatment with a Western detection reagent (Elpis Biotech, Daejeon, Korea) using Gel Doc (Bio-Rad, Hercules, CA, USA).
In the above experiment, 3T3-L1 adipocytes were differentiated using an MDI cocktail, and then the inhibitory effect on adipogenesis caused by peptide treatment was confirmed by measuring the expression levels of related factors. SREBP1 (Sterol Regulatory Element Binding Protein-1) is known to induce the synthesis of lipids and cholesterol, FAS is a fatty acid synthase, and C/EBPα (CCAAT/enhancer-binding protein α) is known to induce adipogenesis through PPAR-γ (Genes Dev. 2002 Jan 1; 16(1): 22-26). […]

Compound: C[C@@H](O)[C@H](NC(=O)CNC(=O)[C@@H](N)Cc1c[nH]cn1)C(=O)N[C@@H](Cc1ccc(O)cc1)C(=O)O
- expression level of PGC1α (3T3-L1 cells [1]): increased
- expression level of PLIN (3T3-L1 cells [1]): increased
- expression level of pHSL (3T3-L1 cells [1]): increased
- expression level of C/EBPα (3T3-L1 cells [2]): reduced
- expression level of FAS (3T3-L1 cells [2]): reduced
- expression level of SREBP1 (3T3-L1 cells [2]): reduced
- expression level of pACCα (3T3-L1 cells [2]): increased
